The source of these data is IntAct's records for PubMed 20389281.

The labels stand for the following.
B1: Zinc finger protein SNAI1 (Homo sapiens), O95863 (parent)
chain: MPRSFLVRKPSDPNRKPNYSELQDSNPEFTFQQPYDQAHLLAAIPPPEILNPTASLPMLIWDSVLAPQAQPIAWASLRLQESPRVAELTSLSDEDSGKGSQPPSPPSPAPSSFSSTSVSSLEAEAYAAFPGLGQVPKQLAQLSEAKDLQARKAFNCKYCNKEYLSLGALKMHIRSHTLPCVCGTCGKAFSRPWLLQGHVRTHTGEKPFSCPHCSRAFADRSNLRAHLQTHSDVKKYQCQACARTFSRMSLLHKHQESGCSGCPR

Variants of B1 are the subject of one test. As to conditions: with kdm1a_human KDM1A.
In the case of F5A, the “effect of a mutation on the interaction” value is “disrupting interaction”.

A further test covers variants of B1. Particulars: with kdm1a_human KDM1A. The source holds these as a separate data set.
As to K9A, the “effect of a mutation on the interaction” value is “disrupting interaction”.

A further test covers variants of B1. As to conditions: with kdm1a_human KDM1A. The source holds these as a separate data set.
For R8A, the “effect of a mutation on the interaction” value is “decreasing interaction”.

Variants of B1 are the subject of another test. As to conditions: with kdm1a_human KDM1A. This is another data set of the same source.
On to R8A, for which the “effect of a mutation on the interaction” value is recorded as “disrupting interaction”.

Variants of B1 are the subject of another test. As to conditions: with kdm1a_human KDM1A. This is another data set of the same source.
Turning to S4A, the “effect of a mutation on the interaction” value is recorded as “disrupting interaction”.

The variants in a further test derive from B1. Particulars: with kdm1a_human KDM1A. This is another data set of the same source.
As to P2A, the “effect of a mutation on the interaction” value was “disrupting interaction”.

The variants in a further test derive from B1. Particulars: with kdm1a_human KDM1A. This is another data set of the same source.
Turning to R3A, the “effect of a mutation on the interaction” value is “disrupting interaction”.
